Sequences of proteins named here, by UniProt entry; tags and fusion partners are left off. Residues count along the entry.
UniProt P00533, 25-1210 T790M/L858R limits assumed: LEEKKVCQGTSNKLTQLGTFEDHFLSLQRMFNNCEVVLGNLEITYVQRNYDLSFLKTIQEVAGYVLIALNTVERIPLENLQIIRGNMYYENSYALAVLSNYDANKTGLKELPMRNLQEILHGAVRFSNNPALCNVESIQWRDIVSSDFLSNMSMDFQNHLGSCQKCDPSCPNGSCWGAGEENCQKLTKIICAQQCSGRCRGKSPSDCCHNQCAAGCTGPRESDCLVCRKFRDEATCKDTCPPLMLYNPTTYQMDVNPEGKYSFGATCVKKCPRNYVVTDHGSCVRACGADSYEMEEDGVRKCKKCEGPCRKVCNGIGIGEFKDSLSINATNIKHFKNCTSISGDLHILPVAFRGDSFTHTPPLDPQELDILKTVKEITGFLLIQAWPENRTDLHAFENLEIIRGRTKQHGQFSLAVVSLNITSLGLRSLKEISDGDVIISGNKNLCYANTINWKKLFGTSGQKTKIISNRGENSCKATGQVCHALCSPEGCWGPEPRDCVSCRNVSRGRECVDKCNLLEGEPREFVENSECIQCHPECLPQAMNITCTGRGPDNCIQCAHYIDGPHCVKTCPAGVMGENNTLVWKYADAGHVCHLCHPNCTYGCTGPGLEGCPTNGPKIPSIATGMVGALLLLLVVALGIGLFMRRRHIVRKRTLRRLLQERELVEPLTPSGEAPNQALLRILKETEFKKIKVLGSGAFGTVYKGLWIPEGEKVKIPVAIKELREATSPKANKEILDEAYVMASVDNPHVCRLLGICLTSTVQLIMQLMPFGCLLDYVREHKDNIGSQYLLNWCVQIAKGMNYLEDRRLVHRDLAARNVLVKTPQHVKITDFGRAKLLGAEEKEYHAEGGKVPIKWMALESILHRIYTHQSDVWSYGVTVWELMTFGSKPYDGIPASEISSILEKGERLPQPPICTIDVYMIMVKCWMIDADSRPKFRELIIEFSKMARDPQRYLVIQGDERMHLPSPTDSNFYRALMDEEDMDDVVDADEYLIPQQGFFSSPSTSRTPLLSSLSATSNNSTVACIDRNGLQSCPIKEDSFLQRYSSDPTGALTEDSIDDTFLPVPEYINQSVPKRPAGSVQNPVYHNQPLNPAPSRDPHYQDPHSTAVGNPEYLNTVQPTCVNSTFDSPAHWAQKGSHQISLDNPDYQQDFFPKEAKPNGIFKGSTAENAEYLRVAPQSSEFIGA

In patent publication US9890152B2 (Genentech, Inc., priority 2012, dated 2018):

Key:
[1] = test system: H1975 (EGFR T790M/L858R) cell proliferation; test: H1975 proliferation assay (Cell Titer-Glo); type: cell-based; settings: Homo sapiens, NCI-H1975 cells, 72 hour, read-out: H1975 antiproliferative EC50
EGFR T790M L858R [2] = molecular target: T1, EGFR T790M L858R (Homo sapiens, UniProt P00533, L858R/T790M); test: biochemical; settings: EGFR(T790M/L858R) Ki (μM), 5 μM ATP, 30 min, room temperature; apparent Ki (Morrison) converted by Cheng-Prusoff, Km of ATP 1.3 μM
EGFR T790M L858R [3] = molecular target: T1, EGFR T790M L858R; settings: read-out: EGFR(T790M/L858R) Ki; 5 μM ATP, 30 min, room temperature; apparent Ki (Morrison) converted by Cheng-Prusoff, Km of ATP 1.3 μM

| SMILES | EC50 [1] | Ki (EGFR T790M L858R [2]) | Ki (EGFR T790M L858R [3]) |
| --- | --- | --- | --- |
| CC(C)n1cc(C(N)=O)c2cnc(Nc3ccnc(-c4cnn(S(=O)(=O)C5CC5)c4)n3)cc21 [Example 51, 6-((2-(1-(Cyclopropylsulfonyl)-1H-pyrazol-4-yl)pyrimidin-4-yl)amino)-1-isopropyl-1H-pyrrolo[3,2-c]pyridine-3-carboxamide] | 1220 nM | 0.001 µM |  |
| CCNC(=O)c1cn(C(C)C)c2cc(Nc3ccnc(N4CCC(OC)CC4)n3)ncc12 [Example 57, N-Ethyl-1-isopropyl-6-((2-(4-methoxypiperidin-1-yl)pyrimidin-4-yl)amino)-1H-pyrrolo[3,2-c]pyridine-3-carboxamide] | 2960 nM | 0.0054 µM |  |
| COC1CCN(c2nccc(Nc3cc4c(cn3)c(-c3nnc(C)o3)cn4C(C)C)n2)CC1 [Example 59, 1-Isopropyl-N-(2-(4-methoxypiperidin-1-yl)pyrimidin-4-yl)-3-(5-methyl-1,3,4-oxadiazol-2-yl)-1H-pyrrolo[3,2-c]pyridin-6-amine] | 4430 nM | 0.0119 µM |  |
| Cc1nc2cnc(Nc3ccnc(-c4cnn(S(C)(=O)=O)c4)n3)cc2n1C(C)C [Example 91, 1-isopropyl-2-methyl-N-(2-(1-(methylsulfonyl)-1H-pyrazol-4-yl)pyrimidin-4-yl)-1H-imidazo[4,5-c]pyridin-6-amine] |  |  | 17.8 nM |
| COC1CCN(c2nccc(Nc3cc4c(cn3)nc(C(F)F)n4C(C)C)n2)CC1 [Example 110, 2-(difluoromethyl)-1-isopropyl-N-(2-(4-methoxypiperidin-1-yl)pyrimidin-4-yl)-1H-imidazo[4,5-c]pyridin-6-amine] | 3360 nM | 0.0429 µM |  |
| COC1CCN(c2nccc(Nc3cc4c(cn3)c(C(N)=O)cn4C(C)C)n2)CC1 [Example 115, 1-isopropyl-6-((2-(4-methoxypiperidin-1-yl)pyrimidin-4-yl)amino)-1H-pyrrolo[3,2-c]pyridine-3-carboxamide] | 3410 nM | 0.004 µM |  |
| COCC(C)(C)n1c(C)nc2cnc(Nc3ccnc(N4CCC(OC)CC4)n3)cc21 [Example 164, [1-(2-Methoxy-1,1-dimethylethyl)-2-methyl-1H-imidazo[4,5-c]pyridin-6-yl]-[2-(4-methoxypiperidin-1-yl)pyrimidin-4-yl]amine] | 9000 nM | 0.0626 µM |  |
| CC(C)n1cc(C2CNC(=O)C2)c2cnc(Nc3ccnc(-c4cnn(S(=O)(=O)C5CC5)c4)n3)cc21 (stereo not drawn) [Example 256, 4-(6-(2-(1-(Cyclopropylsulfonyl)-1H-pyrazol-4-yl)pyrimidin-4-ylamino)-1-isopropyl-1H-pyrrolo[3,2-c]pyridin-3-yl)pyrrolidin-2-one] | 1030 nM | 0.00548 µM |  |
| CC(C)n1c(Cl)c(C(=O)NC2CCOCC2)c2cnc(Nc3ccnc(-c4cnn(S(=O)(=O)C5CC5)c4)n3)cc21 [Example 262, 2-Chloro-6-(2-(1-(cyclopropylsulfonyl)-1H-pyrazol-4-yl)pyrimidin-4-ylamino)-1-isopropyl-N-(tetrahydro-2H-pyran-4-yl)-1H-pyrrolo[3,2-c]pyridine-3-carboxamide] | 357 nM | 0.00116 µM |  |
| COC1(CCN)CCN(c2nccc(Nc3cc4c(cn3)nc(C)n4C(C)C)n2)CC1 [Example 270, {2-[4-(2-Aminoethyl)-4-methoxypiperidin-1-yl]pyrimidin-4-yl}(1-isopropyl-2-methyl-1H-imidazo[4,5-c]pyridin-6-yl)amine] |  |  | 27.7 nM |
| COC1(CN)CCN(c2nccc(Nc3cc4c(cn3)nc(C)n4C(C)C)n2)CC1 [Example 271, [2-(4-Aminomethyl-4-methoxypiperidin-1-yl)pyrimidin-4-yl](1-isopropyl-2-methyl-1H-imidazo[4,5-c]pyridin-6-yl)amine] | 9650 nM | 0.0749 µM |  |
| CC1(C)COc2nc3cnc(Nc4ccnc(-c5cnn(S(=O)(=O)C6CC6)c5)n4)cc3n21 [Example 280, [2-(1-Cyclopropanesulfonyl-1H-pyrazol-4-yl)-pyrimidin-4-yl]-(3,3-dimethyl-2,3-dihydro-1-oxa-3a,6,8-triazacyclopenta[a]inden-5-yl)-amine] | 808 nM | 0.0108 µM |  |
| CC(C)n1c(OCCO)nc2cnc(Nc3ccnc(-c4cnn(S(=O)(=O)C5CC5)c4)n3)cc21 [Example 282, 2-{6-[2-(1-Cyclopropanesulfonyl-1H-pyrazol-4-yl)pyrimidin-4-ylamino]-1-isopropyl-1H-imidazo[4,5-c]pyridin-2-yloxy}ethanol] | 1580 nM | 0.0032 µM |  |
| CCNc1ncc(-c2nccc(Nc3cc4c(cn3)nc(C)n4C(C)C)n2)s1 [Example 295, [2-(2-Ethylaminothiazol-5-yl)pyrimidin-4-yl](1-isopropyl-2-methyl-1H-imidazo[4,5-c]pyridin-6-yl)amine] | 588 nM | 0.00146 µM |  |
| CNc1ncc(-c2nccc(Nc3cc4c(cn3)nc(C)n4C(C)C)n2)s1 [Example 312, (1-Isopropyl-2-methyl-1H-imidazo[4,5-c]pyridin-6-yl)-[2-(2-methylaminothiazol-5-yl)pyrimidin-4-yl]amine] | 587 nM | 0.00174 µM |  |
| CC(=O)Nc1cn(C(C)C)c2cc(Nc3ccnc(-c4cnn(S(=O)(=O)C5CC5)c4)n3)ncc12 [Example 327, N-(6-((2-(1-(Cyclopropylsulfonyl)-1H-pyrazol-4-yl)pyrimidin-4-yl)amino)-1-isopropyl-1H-pyrrolo[3,2-c]pyridin-3-yl)acetamide] | 440 nM | 0.000702 µM |  |
| Cc1c(C(=O)NC2CCOCC2)c2cnc(Nc3ccnc(-c4cnn(S(=O)(=O)C5CC5)c4)n3)cc2n1C(C)C [Example 335, 6-((2-(1-(Cyclopropylsulfonyl)-1H-pyrazol-4-yl)pyrimidin-4-yl)amino)-1-isopropyl-2-methyl-N-(tetrahydro-2H-pyran-4-yl)-1H-pyrrolo[3,2-c]pyridine-3-carboxamide] | 876 nM | 0.00147 µM |  |
| CC(C)n1cc(C(=O)NC2COC2)c2cnc(Nc3ccnc(-c4cnn(S(=O)(=O)N(C)C)c4)n3)cc21 [Example 378, 6-((2-(1-(N,N-dimethylsulfamoyl)-1H-pyrazol-4-yl)pyrimidin-4-yl)amino)-1-isopropyl-N-(oxetan-3-yl)-1H-pyrrolo[3,2-c]pyridine-3-carboxamide] | 1060 nM | 0.00244 µM |  |
| CC(C)n1cc(-c2cnn(CCO)c2)c2cnc(Nc3ccnc(-c4cnn(S(=O)(=O)C5CC5)c4)n3)cc21 [Example 393, 2-(4-(6-((2-(1-(cyclopropylsulfonyl)-1H-pyrazol-4-yl)pyrimidin-4-yl)amino)-1-isopropyl-1H-pyrrolo[3,2-c]pyridin-3-yl)-1H-pyrazol-1-yl)ethanol] | 209 nM | 0.000812 µM |  |
| Cc1nc2cnc(Nc3ccnc(-c4cnn(CC5CC5)c4)n3)cc2n1C(C)C [Example 395, N-(2-(1-(cyclopropylmethyl)-1H-pyrazol-4-yl)pyrimidin-4-yl)-1-isopropyl-2-methyl-1H-imidazo[4,5-c]pyridin-6-amine] | 5000 nM | 0.0321 µM |  |
| CC(C)n1cc(C(=O)NC2CCOCC2)c2cnc(Nc3ccnc(-c4cnn(S(=O)(=O)C5CC5)c4)n3)cc21 [Example 396] | 548 nM | 0.00106 µM |  |
| CC(C)n1c(CO)nc2cnc(Nc3ccnc(N4C[C@H]5CC[C@@H](C4)[C@H]5O)n3)cc21 [Example 433, (1R,5S,8r)-3-(4-((2-(hydroxymethyl)-1-isopropyl-1H-imidazo[4,5-c]pyridin-6-yl)amino)pyrimidin-2-yl)-3-azabicyclo[3.2.1]octan-8-ol] | 9840 nM | 0.0265 µM |  |
| COC1(CO)CCN(c2nccc(Nc3cc4c(cn3)c(-c3cnn(C(C)(C)C(N)=O)c3)cn4C(C)C)n2)CC1 [Example 445, 2-(4-(6-(2-(4-(hydroxymethyl)-4-methoxypiperidin-1-yl)pyrimidin-4-ylamino)-1-isopropyl-1H-pyrrolo[3,2-c]pyridin-3-yl)-1H-pyrazol-1-yl)-2-methylpropanamide] | 7300 nM | 0.00346 µM |  |
| O=S(=O)(C1CC1)n1cc(-c2nccc(Nc3cc4c(cn3)nc(CO)n4-c3ccccc3)n2)cn1 [Example 475, (6-(2-(1-(cyclopropylsulfonyl)-1H-pyrazol-4-yl)pyrimidin-4-ylamino)-l-phenyl-1H-imidazo[4,5-c]pyridin-2-yl)methanol] | 739 nM | 0.00344 µM |  |
| CC1(C)CCOc2nc3cnc(Nc4ccnc(-c5cnn(S(=O)(=O)C6CC6)c5)n4)cc3n21 [Example 534, [2-(1-Cyclopropanesulfonyl-1H-pyrazol-4-yl)-pyrimidin-4-yl]-(4,4-dimethyl-3,4-dihydro-2H-1-oxa-4a,7,9-triazafluoren-6-yl)amine] | 732 nM | 0.00754 µM |  |
| CC1(C)COCc2nc3cnc(Nc4ccnc(-c5cnn(S(=O)(=O)C6CC6)c5)n4)cc3n21 [Example 538, [2-(1-Cyclopropanesulfonyl-1H-pyrazol-4-yl)-pyrimidin-4-yl]-(4,4-dimethyl-3,4-dihydro-1H-2-oxa-4a,7,9-triazafluoren-6-yl)amine] | 1910 nM | 0.00461 µM |  |
| COC1CCN(c2nccc(Nc3cc4c(cn3)nc([C@@H](C)O)n4[C@@H](C)C(F)(F)F)n2)CC1F (stereo partly drawn) [Example 543, (R)-1-[6-[2-(3-Fluoro-4-methoxypiperidin-1-yl)-pyrimidin-4-ylamino]-1-((S)-2,2,2-trifluoro-1-methyl-ethyl)-1H-imidazo[4,5-c]pyridin-2-yl]ethanol] | 121 nM | 0.00116 µM |  |
| C[C@H](n1c([C@@H](C)O)nc2cnc(Nc3ccnc(-c4cnn(S(=O)(=O)C5CC5)c4)n3)cc21)C(F)(F)F [Example 572, (R)-1-[6-[2-(1-Cyclopropanesulfonyl-1H-pyrazol-4-yl)-pyrimidin-4-ylamino]-1-((S)-2,2,2-trifluoro-1-methylethyl)-1H-imidazo[4,5-c]pyridin-2-yl]-ethanol] | 346 nM | 0.00111 µM |  |

Like-named read-outs stand apart in the source and are kept apart here.
